Data as given in US9796706B2, “Inhibitors of Jun N-terminal kinase” (IMAGO PHARMACEUTICALS, INC., priority 2009, dated 2017).

The chains behind the UniProt entries cited, without tags or fusion partners. A line that says so, or that is headed by a name, gives the form on record, which may keep a tag or linker.
UniProt P53779, whole entry, species assumed: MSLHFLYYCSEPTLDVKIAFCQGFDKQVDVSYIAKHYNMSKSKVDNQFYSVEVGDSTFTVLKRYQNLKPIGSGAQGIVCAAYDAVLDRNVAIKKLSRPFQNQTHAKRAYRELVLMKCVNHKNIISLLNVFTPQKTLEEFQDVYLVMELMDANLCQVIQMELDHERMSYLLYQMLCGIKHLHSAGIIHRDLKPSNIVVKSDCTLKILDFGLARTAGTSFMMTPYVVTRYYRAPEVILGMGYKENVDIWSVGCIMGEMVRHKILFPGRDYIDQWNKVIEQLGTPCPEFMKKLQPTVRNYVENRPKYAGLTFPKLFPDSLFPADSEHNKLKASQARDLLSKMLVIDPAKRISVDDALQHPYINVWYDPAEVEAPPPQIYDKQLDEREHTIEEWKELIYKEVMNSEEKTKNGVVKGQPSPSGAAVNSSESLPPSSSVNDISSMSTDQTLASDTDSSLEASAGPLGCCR
UniProt P45983, other isoform, or with tags, fused parts or gaps isoform P45983-2, species assumed: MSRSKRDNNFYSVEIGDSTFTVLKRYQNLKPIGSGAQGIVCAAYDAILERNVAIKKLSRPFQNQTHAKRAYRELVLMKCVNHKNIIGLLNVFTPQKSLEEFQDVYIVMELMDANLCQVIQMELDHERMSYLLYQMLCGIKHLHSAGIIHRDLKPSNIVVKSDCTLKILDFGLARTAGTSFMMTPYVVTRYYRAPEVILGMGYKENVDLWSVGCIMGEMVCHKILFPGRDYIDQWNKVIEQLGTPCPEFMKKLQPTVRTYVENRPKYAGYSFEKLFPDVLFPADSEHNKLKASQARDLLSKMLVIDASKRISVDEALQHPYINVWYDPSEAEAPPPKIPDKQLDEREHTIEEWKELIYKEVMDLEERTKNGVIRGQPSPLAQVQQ

Columns and labels:
JNK3 = JNK3 (Homo sapiens (Human), UniProt P53779); assay: JNK3 TR-FRET kinase assay (Example 14); assay type: biochemical; details: procedures of Example 14 (TR-FRET)
Method: (§1) 14.3. Active JNK 1, 2 and 3 TR-FRET Assay
(§2) (1) Assay buffer #1 with 0.0025% Tween and 1 mM DTT was prepared using JNK buffer stock solution.
(§3) (2) Assay buffer #2 with 0.025% BSA was prepared using the assay buffer #1.
(§4) (3) Test compound solution preparation: 5× compound solution was prepared using assay buffer #1 with 5% DMSO. The compound solution (10 μl/well) was added to a 384-well plate (Corning, Cat No. 3654).
(§5) (4) aJNK1, 2 or 3 preparation: aJNK stock (100 μg/ml) at −80° C. was thawed on ice and an aJNK (1.6 ng/ml) solution was prepared using assay buffer #2. The aJNK solution (20 μl/well) was added to the plate and the plate was shaken. The enzyme was incubated with the compound at RT for 10 min. (5) ATP/substrate solution preparation: ATP and substrate stocks were thawed on ice. 2.5×ATP/substrate (e.g., 25 μM or 2.5 mM ATP/50 nM EPIW-1) was prepared using assay buffer #1. The ATP/substrate (20 μl/well) was added to the plate and the plate was shaken. The plate was incubated at RT for 15 min. Note: In an exemplary assay, the final ATP concentration was about 1 mM. (6) EDTA preparation: 30 mM EDTA was prepared using 0.5M EDTA stock and assay buffer #1. The EDTA (10 μl/well) was added to the plate to quench the enzyme reaction and the plate was shaken well. (7) Detection reagent preparation: Eu-63 and SA-XL stocks were thawed on ice. 4× Eu-63/SA-XL (2 nM Eu-63/9.4 nM SA-XL) was prepared using JNK detection buffer. The Eu-63/SA-XL solution (20 μl/well) was added to the plate and the plate was shaken. The plate was incubated at RT for 1 hr before reading the plate on LJL using ratiometric method named HTRF.
(§6) 14.4. Coupled JNK 1, 2 and 3 TR-FRET Assay
(§7) (1) Assay buffer with 0.0025% Tween, 0.01% BSA, and 1 mM DTT was prepared using JNK buffer stock solution.
(§8) (2) Test compound solution preparation: 5× compound solution, including EDTA background, was prepared using assay buffer with 5% DMSO. The compound solution (10 μl/well) was added to a 384-well plate (Corning, Cat No. 3654).
(§9) (3) uJNK1,2, or 3 activation reaction preparation: uJNK activation solution was prepared using assay buffer (1.6 ng/ml MKK4, 1.6 ng/ml MKK7, 16 ng/ml uJNK, and 20 uM ATP final). The uJNK activation solution (35 μl/well) was added to the plate, the plate was shaken, and the reaction mixture was incubated with compound at 30° C. for 60 min. (4) c-Jun substrate solution preparation: 50 nM EPIW-1, c-Jun peptide, was prepared using assay buffer (15 nM final). The EPIW-1 solution (15 μl/well) was added to the plate, the plate was shaken and incubated at 30° C. for 60 min. (5) EDTA preparation: 30 mM EDTA was prepared using 0.5M EDTA stock and assay buffer. The EDTA (10 μl/well) was added to the plate to quench the enzyme reaction and the plate was shaken well. (6) Detection reagent preparation: Eu-73 and SA-XL stocks were thawed on ice. 4× Eu-73/SA-XL (2 nM Eu-73/9.4 nM SA-XL) were prepared using JNK detection buffer. The Eu-73/SA-XL solution (20 μl/well) was added to the plate. The plate was shaken and incubated at RT for 1 hr before reading the plate on LJL using ratiometric method named HTRF.

JNK1 = JNK1 (Homo sapiens (Human), UniProt P45983); assay: JNK1 TR-FRET kinase assay (Example 14); assay type: biochemical; details: procedures of Example 14 (TR-FRET)
Method: as §1, §2, §3, §4, §5, §6, §7, §8, §9

Structure (SMILES) | IC50 (JNK3) | IC50 (JNK1)
COc1ccc(CC(=O)Nc2ccsc2-c2nc(C)n[nH]2)cc1 [2-(4-methoxyphenyl)-N-(2-(3-methyl-1H-1,2,4-triazol-5-yl)thiophen-3-yl)acetamide] | 0.1 to 10 µM | 0.1 to 10 µM
O=C(Cc1ccc2c(c1)OCCO2)Nc1ccsc1-c1ncn[nH]1 [N-(2-(1H-1,2,4-triazol-5-yl)thiophen-3-yl)-2-(2,3-dihydrobenzo[b][1,4]dioxin-6-yl)acetamide] | 0.1 to 10 µM | 0.1 to 10 µM
COc1ccc(CC(=O)Nc2ccsc2-c2ncco2)cc1 [2-(4-methoxyphenyl)-N-(2-(oxazol-2-yl)thiophen-3-yl)acetamide] | 0.1 to 10 µM | 0.1 to 10 µM
Cn1ncnc1-c1ncsc1NC(=O)Cc1cccc2cnccc12 [2-(isoquinolin-5-yl)-N-(4-(1-methyl-1H-1,2,4-triazol-5-yl)thiazol-5-yl)acetamide] | 0.1 to 10 µM | 0.1 to 10 µM

More lines, now with the values ahead:

IC50 (JNK3) | IC50 (JNK1) | Structure (SMILES)
0.1 to 10 µM | – | O=C(Cc1cccc2ccccc12)Nc1ccsc1-c1cc[nH]n1 [N-(2-(1H-pyrazol-3-yl)thiophen-3-yl)-2-(naphthalen-1-yl)acetamide]
0.1 to 10 µM | 0.1 to 10 µM | Cc1cc(-c2sccc2NC(=O)Cc2cccc3ccccc23)n[nH]1 [N-(2-(5-methyl-1H-pyrazol-3-yl)thiophen-3-yl)-2-(naphthalen-1-yl)acetamide]
0.1 to 10 µM | 0.1 to 10 µM | Cc1noc(-c2sccc2NC(=O)Cc2cccc3ccccc23)n1 [N-(2-(3-methyl-1,2,4-oxadiazol-5-yl)thiophen-3-yl)-2-(naphthalen-1-yl)acetamide]
0.1 to 10 µM | 0.1 to 10 µM | COc1ccc(CC(=O)Nc2sccc2-c2nn[nH]n2)cc1 [N-(3-(2H-tetrazol-5-yl)thiophen-2-yl)-2-(4-methoxyphenyl)-acetamide]
